From patent publication EP0942906B1, “COMPOUNDS USEFUL FOR INHIBITION OF FARNESYL PROTEIN TRANSFERASE” (SCHERING CORPORATION, priority 1996, dated 1998) come the findings set out here.

This assay deals with farnesyl protein transferase (Homo sapiens, UniProt P49354+P49356). Nature of the assay: FPT IC50, inhibition of farnesyl protein transferase, in vitro enzyme assay (procedure of WO 95/10516). In kind it is biochemical. Conditions: range stated for the listed group of compounds. As to the method:
FPT IC50 (inhibition of farnesyl protein transferase, in vitro enzyme assay) and COS Cell IC50 (Cell-Based Assay) were determined following the assay procedures described in WO 95/10516, published April 20, 1995. GGPT IC50 (inhibition of geranylgeranyl protein transferase, in vitro enzyme assay), Cell Mat Assay, and anti-tumor activity (in vivo anti-tumor studies) could be determined by the assay procedures described in WO 95/10516.

What is called IC50 is the concentration at which inhibition is half-maximal.

Like-named read-outs stand apart in the source and are kept apart here.

`NCC(=O)N1CCC(CC(=O)N2CCC([C@H]3c4ncc(Br)cc4CCc4cc(Cl)cc(Br)c43)CC2)CC1` [Compound 16.0]: the IC50 (H-ras, read-out: FPT IC50 (H-ras)) is 2 to 31.7 nM and the concentration for half-maximal inhibition (IC50) (k-ras, read-out: FPT IC50 (k-ras)) lay within 14.5 to 71.2 nM.
